# Source: publication PMC3172709 (Journal of pharmacy & pharmaceutical sciences : a …, 2011)
# Assays:
# MDR1 mRNA = conditions: LS-180 cells, 48 h, 50 μM
# P-gp = test: Western blot analysis of P-gp protein expression in drug-treated LS-180 cells; conditions: 48 h
# [1] = following 600 mg dose; ref Facts & Comparisons 4.0, online edition; cited from earlier work
compound,measurement,setting,value
CO[C@H]1/C=C/O[C@@]2(C)Oc3c(C)c(O)c4c(O)c(c(/C=N/N5CCN(C)CC5)c(O)c4c3C2=O)NC(=O)/C(C)=C\C=C\[C@H](C)[C@H](O)[C@@H](C)[C@@H](O)[C@@H](C)[C@H](OC(C)=O)[C@@H]1C [Rifampicin],fold increase in MDR1 mRNA level,MDR1 mRNA,6.2 fold
same,fold increase in P-gp expression,P-gp; 50 μM,5.6 fold
same,fold increase in P-gp protein expression,"P-gp; over entire concentration range 5–100 μM, vs control",4–7 fold
same,"plasma concentrations, average",[1],21.5 µM
